According to PubChem BioAssay AID504648 (National Center for Advancing Translational Sciences (NCATS), 2011):
This is a selection; strong and weak results do not stand in their true shares. Inconclusive results are not listed. Activity calls are given as the source filed them. The call rests on the fitted dose curve; in most records, active means well fitted inhibition curve with a large enough effect; inconclusive means small, poorly fitted or top-dose-only effect, or effect the other way, or another doubt; inactive means no such curve, though single readings can be large or run the other way.

Assay: Nrf2 qHTS screen for inhibitors: counterscreen for cytotoxicity
Settings: A549 ARE-Fluc cells, CellTiter-Fluor viability, 18-24 h; at 46 µM (top of the series)
From the text: NIH Molecular Libraries Probe Production Network [MLPCN]
NIH Chemical Genomics Center [NCGC]
Assay Provider: Shyam Biswal, Johns Hopkins University
Nrf2 is a transcription factor that maintains cellular redox homoestasis and protects cells from xenobiotics. Nrf2 binds to the antioxidant response element (ARE) to induce gene expression of a broad spectrum of genes that encode for antioxidants. […] Finding a small molecule that act as an inhibitor of Nrf2 function would represent a novel therapeutic target that could lead to improvement in survival of patients undergoing chemo- and/or radio- therapy.
So here we implemented a counterscreen to weed out the cytotoxic compounds.
1. Shibata, T., et al., Genetic Alteration of Keap1 Confers Constitutive Nrf2 Activation and Resistance to Chemotherapy in Gallbladder Cancer. Gastroenterology, 2008.
2. Sjoblom, T., et al., The consensus coding sequences of human breast and colorectal cancers. Science, 2006. 314(5797): p. 268-74.
NCGC Assay Protocol Summary:
A concentration-response assay was performed with A549 ARE_Fluc cells which are suspended in 5% FBS OPTI-MEM. Five uL were dispensed into 1536-well white TC-treated plate using the Kalypsys dispenser to achieve a density of 5000 cells/well in all columns except column 1. The plate is incubated at 37deg C at 5% CO2 for 2 hours before 23 nL of compounds are added with the Kalypsys pin tool equipped with a 1,536-pin array containing 10-nL slotted pins (FP1S10, 0.457-mm diameter, 50.8 mm long; V&P Scientific). The control compounds Budesonide and Staurosporine are both added at a concentration of 2mM and Budesonide is also added as a 1:10 titration, starting at 200uM, to achieve dose-response. After an 18-24 hour incubation at 37deg C at 5% CO2, 5ul of medium is added to column 1. Afterwards 1ul of 5x of CellTiter-Fluor (Promega) is added to every well. The plate is then incubated at 37deg C at 5% CO2 for 30 minutes before they are read on the ViewLux (Perkin Elmer) for a fluorescent read Ex=405(10)/Em=525(10) for a 3 second exposure, 2x binning, and high gain. Then 3 uL of 3x BugLite is dispensed into all wells and the plate is incubated at ambient room temperature for 15 minutes. Afterwards another ViewLux read is performed using the clear filter to get a luminescent read with the settings of 40 second exposure, 2x binning, and high gain. Cytotoxicity is assessed through the first fluorescent read and then biochemical activity against Nrf2 is measured in the luminescent read.
On the % scale 0 is the no-effect control and ±100 the full control effect.

| SMILES | activity change, negative = cytotoxicity |
| --- | --- |
| Cn1c(=O)[nH]cc(N(CCCl)CCCl)c1=O | inactive: -3.59% |
| Cc1cc(N(CCCl)CCCl)ccc1C=O | inactive: -3.88% |
| N/C(=N\O)c1c(N)no[n+]1[O-] | inactive: -2.18% |
| O=C(OC1CN2CCC1CC2)c1ccc([N+](=O)[O-])cc1 (stereo unspecified) | inactive: -4.44% |
| O=P1(N(CCCl)CCCl)SCCCS1 | inactive: 2.41% |
| O=C1C(O)=C([N+](=O)[O-])C(=O)C(O)=C1[N+](=O)[O-] | inactive: -2.67% |
